Outcome data for one compound are collected here from PubChem BioAssay AID488977 (Johns Hopkins Ion Channel Center, 2010).

Sequences of proteins named here, by UniProt entry; tags and fusion partners are left off. A change or cut given only in a name is not applied to a line headed by its entry.
UniProt Q9GZV3, whole entry, stated change not applied: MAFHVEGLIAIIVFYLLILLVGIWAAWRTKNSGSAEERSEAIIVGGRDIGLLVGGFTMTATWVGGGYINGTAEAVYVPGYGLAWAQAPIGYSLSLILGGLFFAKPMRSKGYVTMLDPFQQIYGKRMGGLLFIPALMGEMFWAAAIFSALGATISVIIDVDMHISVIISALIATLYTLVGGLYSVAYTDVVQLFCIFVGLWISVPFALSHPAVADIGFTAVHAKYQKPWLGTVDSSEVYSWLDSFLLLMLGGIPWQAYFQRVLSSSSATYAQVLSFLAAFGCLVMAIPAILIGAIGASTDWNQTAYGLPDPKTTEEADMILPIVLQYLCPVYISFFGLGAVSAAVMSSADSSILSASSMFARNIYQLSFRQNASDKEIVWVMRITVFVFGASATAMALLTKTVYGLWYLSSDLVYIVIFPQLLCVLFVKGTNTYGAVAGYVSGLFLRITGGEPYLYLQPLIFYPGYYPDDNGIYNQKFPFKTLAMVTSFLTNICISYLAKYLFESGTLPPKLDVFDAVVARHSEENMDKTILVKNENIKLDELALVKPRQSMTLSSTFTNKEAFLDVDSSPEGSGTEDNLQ

The structures appear in SMILES notation. Only a part is listed here, and it is no random draw. Calls of active or inactive are those of the source.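 How the source made its calls: active means initial fluorescence not abnormally high and integrated response B-score, plate-corrected, over 3 SD above library mean; inactive means the rest.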

This assay has as its target High affinity choline transporter 1 (Homo sapiens) (UniProt Q9GZV3). Kind of assay: allosteric activators of human choline transporter – cell-based, membrane potential dye, choline EC20, primary screen (AID 488977). The following applies: CHT-expressing cells, at 10 µM, LV-AA mutant CHT in HEK293 cells.
For `CC1=NCCc2c1[nH]c1ccccc21.O=[N+]([O-])c1cc([N+](=O)[O-])c(O)c([N+](=O)[O-])c1`, the outcome was inactive.
